Columns and labels:
tKSI^D40N = tKSI^D40N (Comamonas testosteroni, UniProt P00947, D38N); conditions: pH 7.2, −3 °C
[1] = from literature; cited from earlier work

Chains of the proteins cited; added tags and fusions are not shown.
UniProt P00947, whole entry D38N, looked up: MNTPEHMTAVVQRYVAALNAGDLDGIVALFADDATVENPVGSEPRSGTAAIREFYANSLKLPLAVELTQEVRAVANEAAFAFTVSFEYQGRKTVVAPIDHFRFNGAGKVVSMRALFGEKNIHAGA

O=[N+]([O-])c1ccc(O)cc1[N+](=O)[O-]
δ1, chemical shift of most downfield peak in complex (tKSI^D40N): 14.2 ppm
δ2, chemical shift of second downfield peak in complex (tKSI^D40N): 14.0 ppm
pKa [1]: 5.4

From article PMC1413570, “Testing Electrostatic Complementarity in Enzyme Catalysis: Hydrogen Bonding in the Ketosteroid Isomerase Oxyanion Hole” (PLoS Biology, 2006)
